Laboratory results published in ChEMBL document CHEMBL5365464, “Structure-Based Optimization of the Third Generation Type II Macrocycle TRK Inhibitors with Improved Activity against Solvent-Front, xDFG, and Gatekeeper Mutations” (J Med Chem, 2023).

The chains behind the UniProt entries cited, without tags or fusion partners. Where a name states a change or a piece, a line headed by the entry shows the natural chain unless it says otherwise.
UniProt P07949, whole entry: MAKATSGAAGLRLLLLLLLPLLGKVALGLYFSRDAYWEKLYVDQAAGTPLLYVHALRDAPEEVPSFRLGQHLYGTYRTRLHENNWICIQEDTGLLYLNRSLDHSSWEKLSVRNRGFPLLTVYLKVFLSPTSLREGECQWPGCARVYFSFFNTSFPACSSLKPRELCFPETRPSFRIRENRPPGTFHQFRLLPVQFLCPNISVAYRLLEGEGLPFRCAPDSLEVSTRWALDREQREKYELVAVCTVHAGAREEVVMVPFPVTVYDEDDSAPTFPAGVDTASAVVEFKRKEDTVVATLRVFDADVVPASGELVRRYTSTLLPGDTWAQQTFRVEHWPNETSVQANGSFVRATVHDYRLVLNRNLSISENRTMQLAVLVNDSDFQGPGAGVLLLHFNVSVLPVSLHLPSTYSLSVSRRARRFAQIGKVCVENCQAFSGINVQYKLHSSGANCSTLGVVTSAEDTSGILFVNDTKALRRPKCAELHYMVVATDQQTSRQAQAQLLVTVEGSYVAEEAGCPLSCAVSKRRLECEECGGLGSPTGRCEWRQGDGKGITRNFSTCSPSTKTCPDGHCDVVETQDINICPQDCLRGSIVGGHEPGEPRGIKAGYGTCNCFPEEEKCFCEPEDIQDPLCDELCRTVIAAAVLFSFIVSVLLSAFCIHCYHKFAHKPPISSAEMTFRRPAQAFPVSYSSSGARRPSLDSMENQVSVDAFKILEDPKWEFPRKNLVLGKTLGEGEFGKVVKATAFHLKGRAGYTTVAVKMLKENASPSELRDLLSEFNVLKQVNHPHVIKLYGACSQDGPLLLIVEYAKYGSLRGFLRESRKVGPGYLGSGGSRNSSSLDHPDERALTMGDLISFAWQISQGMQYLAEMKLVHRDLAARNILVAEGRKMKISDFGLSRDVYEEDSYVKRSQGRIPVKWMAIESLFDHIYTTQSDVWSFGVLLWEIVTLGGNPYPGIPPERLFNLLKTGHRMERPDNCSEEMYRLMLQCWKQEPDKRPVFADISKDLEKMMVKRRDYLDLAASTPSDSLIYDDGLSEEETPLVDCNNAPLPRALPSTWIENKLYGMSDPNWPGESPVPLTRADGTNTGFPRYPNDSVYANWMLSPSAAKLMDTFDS
UniProt Q3UFB7, whole entry, looked up, stated change not applied: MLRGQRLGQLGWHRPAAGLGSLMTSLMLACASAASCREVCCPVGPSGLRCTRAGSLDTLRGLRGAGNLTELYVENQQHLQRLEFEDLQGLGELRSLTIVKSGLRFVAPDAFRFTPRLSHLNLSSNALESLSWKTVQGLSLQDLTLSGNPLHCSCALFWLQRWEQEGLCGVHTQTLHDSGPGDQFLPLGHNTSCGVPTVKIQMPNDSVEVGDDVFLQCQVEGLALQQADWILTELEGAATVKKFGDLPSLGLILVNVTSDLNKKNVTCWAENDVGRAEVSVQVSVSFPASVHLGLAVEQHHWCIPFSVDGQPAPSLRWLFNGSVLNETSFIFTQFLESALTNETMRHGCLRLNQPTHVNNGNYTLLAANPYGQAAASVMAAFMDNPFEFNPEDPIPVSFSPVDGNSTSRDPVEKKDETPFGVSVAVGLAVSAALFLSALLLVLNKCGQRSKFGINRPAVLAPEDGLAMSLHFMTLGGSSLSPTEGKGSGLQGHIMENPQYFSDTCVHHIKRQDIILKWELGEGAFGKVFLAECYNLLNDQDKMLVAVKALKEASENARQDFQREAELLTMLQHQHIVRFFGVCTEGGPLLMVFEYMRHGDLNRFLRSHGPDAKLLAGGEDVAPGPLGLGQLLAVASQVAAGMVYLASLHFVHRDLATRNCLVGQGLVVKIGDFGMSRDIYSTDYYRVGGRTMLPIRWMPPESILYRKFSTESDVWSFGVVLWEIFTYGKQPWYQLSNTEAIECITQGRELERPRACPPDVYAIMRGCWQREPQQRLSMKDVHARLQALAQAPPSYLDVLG
UniProt Q15375: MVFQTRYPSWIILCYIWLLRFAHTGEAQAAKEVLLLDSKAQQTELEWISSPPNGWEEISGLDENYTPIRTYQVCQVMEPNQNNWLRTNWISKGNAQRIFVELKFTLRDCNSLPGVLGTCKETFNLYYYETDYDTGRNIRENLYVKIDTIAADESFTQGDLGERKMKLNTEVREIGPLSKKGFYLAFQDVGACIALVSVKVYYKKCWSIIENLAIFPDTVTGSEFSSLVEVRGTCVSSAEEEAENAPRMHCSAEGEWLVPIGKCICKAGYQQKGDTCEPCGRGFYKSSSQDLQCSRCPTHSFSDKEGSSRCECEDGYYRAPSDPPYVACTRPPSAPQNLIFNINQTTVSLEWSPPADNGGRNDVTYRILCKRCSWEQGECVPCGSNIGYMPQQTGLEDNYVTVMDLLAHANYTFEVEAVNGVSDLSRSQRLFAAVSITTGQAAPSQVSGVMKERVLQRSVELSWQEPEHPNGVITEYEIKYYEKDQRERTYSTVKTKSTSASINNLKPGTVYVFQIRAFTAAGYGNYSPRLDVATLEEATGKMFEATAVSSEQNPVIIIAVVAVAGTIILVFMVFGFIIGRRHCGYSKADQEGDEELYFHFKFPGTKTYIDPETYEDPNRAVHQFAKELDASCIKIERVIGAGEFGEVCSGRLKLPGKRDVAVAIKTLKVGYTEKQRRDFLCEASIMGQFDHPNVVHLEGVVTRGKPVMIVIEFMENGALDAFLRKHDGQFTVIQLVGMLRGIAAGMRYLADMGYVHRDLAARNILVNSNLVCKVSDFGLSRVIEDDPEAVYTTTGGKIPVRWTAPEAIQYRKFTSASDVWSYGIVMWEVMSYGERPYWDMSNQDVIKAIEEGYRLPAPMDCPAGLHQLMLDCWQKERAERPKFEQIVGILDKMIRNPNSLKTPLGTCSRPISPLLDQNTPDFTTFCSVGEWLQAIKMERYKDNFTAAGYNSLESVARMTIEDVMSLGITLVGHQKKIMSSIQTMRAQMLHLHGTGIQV
UniProt Q9UBS0: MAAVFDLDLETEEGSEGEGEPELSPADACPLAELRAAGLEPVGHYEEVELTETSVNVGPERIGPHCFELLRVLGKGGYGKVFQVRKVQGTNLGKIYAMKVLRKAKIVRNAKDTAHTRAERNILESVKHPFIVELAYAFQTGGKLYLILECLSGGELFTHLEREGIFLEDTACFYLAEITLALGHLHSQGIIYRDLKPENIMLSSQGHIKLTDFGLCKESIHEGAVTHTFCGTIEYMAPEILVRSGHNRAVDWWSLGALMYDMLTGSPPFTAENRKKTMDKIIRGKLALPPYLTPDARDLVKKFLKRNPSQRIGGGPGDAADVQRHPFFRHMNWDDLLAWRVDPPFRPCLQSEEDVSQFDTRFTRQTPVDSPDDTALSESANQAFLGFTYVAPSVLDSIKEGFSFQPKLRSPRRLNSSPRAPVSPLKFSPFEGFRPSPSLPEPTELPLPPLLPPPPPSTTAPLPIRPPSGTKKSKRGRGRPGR
UniProt O75582: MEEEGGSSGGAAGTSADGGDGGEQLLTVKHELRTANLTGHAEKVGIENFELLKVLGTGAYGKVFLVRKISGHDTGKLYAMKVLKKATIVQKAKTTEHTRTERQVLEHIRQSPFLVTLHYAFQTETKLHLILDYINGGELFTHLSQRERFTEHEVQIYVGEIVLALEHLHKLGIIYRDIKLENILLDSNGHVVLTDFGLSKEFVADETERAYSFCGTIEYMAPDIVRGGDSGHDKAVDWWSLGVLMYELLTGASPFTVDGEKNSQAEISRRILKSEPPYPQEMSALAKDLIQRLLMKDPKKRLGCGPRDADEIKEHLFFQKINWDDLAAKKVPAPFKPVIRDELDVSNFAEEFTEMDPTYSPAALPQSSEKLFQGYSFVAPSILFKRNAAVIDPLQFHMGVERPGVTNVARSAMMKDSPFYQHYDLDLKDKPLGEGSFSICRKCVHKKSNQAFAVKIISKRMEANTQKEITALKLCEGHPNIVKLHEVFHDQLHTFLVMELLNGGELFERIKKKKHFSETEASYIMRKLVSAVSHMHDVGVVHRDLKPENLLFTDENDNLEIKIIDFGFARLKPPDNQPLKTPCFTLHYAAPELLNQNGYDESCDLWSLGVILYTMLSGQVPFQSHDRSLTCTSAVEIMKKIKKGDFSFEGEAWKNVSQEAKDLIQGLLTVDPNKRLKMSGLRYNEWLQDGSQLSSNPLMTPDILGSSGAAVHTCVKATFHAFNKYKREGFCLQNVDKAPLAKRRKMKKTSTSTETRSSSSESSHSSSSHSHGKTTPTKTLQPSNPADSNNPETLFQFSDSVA
UniProt Q9UK32: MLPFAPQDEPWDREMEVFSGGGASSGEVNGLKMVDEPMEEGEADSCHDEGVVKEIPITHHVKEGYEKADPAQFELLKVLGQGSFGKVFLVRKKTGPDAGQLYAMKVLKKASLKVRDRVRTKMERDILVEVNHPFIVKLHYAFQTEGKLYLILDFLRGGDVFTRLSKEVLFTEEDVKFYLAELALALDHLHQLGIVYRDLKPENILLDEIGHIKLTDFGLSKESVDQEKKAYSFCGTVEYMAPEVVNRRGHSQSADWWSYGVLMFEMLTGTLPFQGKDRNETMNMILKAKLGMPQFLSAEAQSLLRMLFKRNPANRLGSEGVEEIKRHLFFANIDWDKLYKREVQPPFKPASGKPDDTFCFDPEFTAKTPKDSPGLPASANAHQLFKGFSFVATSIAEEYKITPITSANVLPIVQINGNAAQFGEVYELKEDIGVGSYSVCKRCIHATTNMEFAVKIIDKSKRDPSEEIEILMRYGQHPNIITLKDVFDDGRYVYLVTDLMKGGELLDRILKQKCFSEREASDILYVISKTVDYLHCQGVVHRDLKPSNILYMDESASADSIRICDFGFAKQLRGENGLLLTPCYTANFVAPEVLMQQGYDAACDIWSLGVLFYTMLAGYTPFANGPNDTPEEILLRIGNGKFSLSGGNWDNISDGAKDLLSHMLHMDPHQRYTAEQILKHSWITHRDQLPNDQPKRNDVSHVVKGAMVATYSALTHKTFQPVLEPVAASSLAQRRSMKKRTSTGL
UniProt P36888, whole entry: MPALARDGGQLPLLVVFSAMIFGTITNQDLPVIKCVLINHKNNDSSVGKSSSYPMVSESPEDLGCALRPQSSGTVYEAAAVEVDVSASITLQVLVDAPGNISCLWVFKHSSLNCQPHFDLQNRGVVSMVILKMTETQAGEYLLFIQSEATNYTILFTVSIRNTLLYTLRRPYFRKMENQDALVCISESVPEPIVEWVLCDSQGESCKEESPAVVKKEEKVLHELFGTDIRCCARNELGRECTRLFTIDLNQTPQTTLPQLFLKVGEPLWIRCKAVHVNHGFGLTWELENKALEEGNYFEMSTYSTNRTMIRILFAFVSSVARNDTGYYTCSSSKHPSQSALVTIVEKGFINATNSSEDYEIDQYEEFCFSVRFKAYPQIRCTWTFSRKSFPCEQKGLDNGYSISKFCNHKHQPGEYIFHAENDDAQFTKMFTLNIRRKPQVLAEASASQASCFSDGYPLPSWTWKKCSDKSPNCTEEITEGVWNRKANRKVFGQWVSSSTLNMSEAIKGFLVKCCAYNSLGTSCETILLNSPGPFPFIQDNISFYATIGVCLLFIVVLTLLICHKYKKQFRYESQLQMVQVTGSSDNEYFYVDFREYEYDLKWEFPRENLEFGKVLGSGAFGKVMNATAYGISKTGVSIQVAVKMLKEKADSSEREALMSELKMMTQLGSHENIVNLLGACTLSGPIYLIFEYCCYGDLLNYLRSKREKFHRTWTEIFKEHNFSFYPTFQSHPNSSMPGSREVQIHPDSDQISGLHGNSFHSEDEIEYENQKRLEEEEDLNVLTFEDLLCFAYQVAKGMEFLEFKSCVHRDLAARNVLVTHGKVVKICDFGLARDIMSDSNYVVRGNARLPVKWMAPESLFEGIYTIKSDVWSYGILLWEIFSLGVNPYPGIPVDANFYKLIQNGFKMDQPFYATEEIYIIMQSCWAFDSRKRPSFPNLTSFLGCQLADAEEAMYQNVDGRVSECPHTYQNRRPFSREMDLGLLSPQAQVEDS
UniProt O94921: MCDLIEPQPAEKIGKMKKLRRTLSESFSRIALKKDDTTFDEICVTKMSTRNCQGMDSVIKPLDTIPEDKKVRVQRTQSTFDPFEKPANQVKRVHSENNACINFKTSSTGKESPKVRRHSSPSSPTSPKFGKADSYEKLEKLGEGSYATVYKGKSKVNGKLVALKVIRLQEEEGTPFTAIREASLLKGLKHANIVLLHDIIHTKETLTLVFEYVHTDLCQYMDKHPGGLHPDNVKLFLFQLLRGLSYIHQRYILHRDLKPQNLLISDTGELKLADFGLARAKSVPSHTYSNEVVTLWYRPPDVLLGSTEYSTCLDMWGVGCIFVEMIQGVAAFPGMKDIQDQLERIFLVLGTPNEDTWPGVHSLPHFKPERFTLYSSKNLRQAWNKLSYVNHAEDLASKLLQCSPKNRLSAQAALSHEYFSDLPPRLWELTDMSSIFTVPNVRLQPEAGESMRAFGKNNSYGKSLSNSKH

Key:
[1] = molecular target: T1, Tyrosine-protein kinase receptor UFO (Homo sapiens) (UniProt P30530); conditions: dose 1000.0 nM
T1 sequence (whole entry): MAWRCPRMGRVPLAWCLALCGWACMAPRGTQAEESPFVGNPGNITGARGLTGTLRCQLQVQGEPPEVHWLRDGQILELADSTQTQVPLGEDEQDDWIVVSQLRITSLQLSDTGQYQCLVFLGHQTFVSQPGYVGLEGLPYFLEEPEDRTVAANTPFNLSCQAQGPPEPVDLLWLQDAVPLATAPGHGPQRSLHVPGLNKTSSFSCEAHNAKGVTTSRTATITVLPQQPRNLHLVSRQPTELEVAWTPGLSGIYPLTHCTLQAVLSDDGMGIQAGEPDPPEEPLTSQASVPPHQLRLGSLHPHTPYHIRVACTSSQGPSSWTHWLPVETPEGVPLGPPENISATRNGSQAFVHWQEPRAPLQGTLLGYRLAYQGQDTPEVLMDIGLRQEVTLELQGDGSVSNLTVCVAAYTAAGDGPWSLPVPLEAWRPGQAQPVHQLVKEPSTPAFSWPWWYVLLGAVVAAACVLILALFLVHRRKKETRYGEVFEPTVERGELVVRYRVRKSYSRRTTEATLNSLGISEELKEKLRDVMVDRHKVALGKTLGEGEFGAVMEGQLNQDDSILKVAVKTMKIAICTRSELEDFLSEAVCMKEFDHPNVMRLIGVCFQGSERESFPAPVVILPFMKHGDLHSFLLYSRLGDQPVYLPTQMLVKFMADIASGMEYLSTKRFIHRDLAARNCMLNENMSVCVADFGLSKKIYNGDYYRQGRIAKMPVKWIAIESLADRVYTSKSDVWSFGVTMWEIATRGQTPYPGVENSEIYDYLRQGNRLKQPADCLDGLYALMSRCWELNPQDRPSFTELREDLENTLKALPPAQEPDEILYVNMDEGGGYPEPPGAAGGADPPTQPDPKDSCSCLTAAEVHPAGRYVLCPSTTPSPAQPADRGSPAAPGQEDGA

[2] = molecular target: Proto-oncogene tyrosine-protein kinase receptor Ret (Homo sapiens, UniProt P07949); conditions: dose 1000.0 nM
[3] = molecular target: Tyrosine-protein kinase HCK (Homo sapiens, UniProt P08631); conditions: dose 1000.0 nM
Ephrin type-A receptor 5 = Ephrin type-A receptor 5 (Homo sapiens, UniProt P54756); conditions: dose 1000.0 nM
[4] = molecular target: High affinity nerve growth factor receptor (Mus musculus) (UniProt Q3UFB7); conditions: BaF3, dose <= 300.0 nM, time 6.0 hrs
Ephrin type-A receptor 2 = Ephrin type-A receptor 2 (Homo sapiens, UniProt P29317); conditions: dose 1000.0 nM
[5] = system: High affinity nerve growth factor receptor (Mus musculus), Q3UFB7 [UNDEFINED MUTATION]; conditions: BaF3, dose <= 300.0 nM, time 6.0 hrs
[6] = system: High affinity nerve growth factor receptor (Mus musculus), Q3UFB7 [UNDEFINED MUTATION]; conditions: BaF3, dose <= 300.0 nM, time 6.0 hrs; remark: listed apart in the source
Ephrin type-A receptor 7 = Ephrin type-A receptor 7 (Homo sapiens, UniProt Q15375); conditions: dose 1000.0 nM
[7] = system: High affinity nerve growth factor receptor (Mus musculus), Q3UFB7 [UNDEFINED MUTATION]; conditions: BaF3, dose <= 300.0 nM, time 6.0 hrs; remark: listed apart in the source
[8] = molecular target: Epithelial discoidin domain-containing receptor 1 (Homo sapiens, UniProt Q08345); conditions: dose 1000.0 nM
[9] = molecular target: Ribosomal protein S6 kinase (Homo sapiens) (UniProt P51812+Q9UBS0+O75676+Q15349+O75582+P23443+Q9UK32+Q15418); conditions: dose 1000.0 nM
[10] = molecular target: T2, Muscle, skeletal receptor tyrosine-protein kinase (Homo sapiens) (UniProt O15146); conditions: dose 1000.0 nM
T2 sequence (whole entry): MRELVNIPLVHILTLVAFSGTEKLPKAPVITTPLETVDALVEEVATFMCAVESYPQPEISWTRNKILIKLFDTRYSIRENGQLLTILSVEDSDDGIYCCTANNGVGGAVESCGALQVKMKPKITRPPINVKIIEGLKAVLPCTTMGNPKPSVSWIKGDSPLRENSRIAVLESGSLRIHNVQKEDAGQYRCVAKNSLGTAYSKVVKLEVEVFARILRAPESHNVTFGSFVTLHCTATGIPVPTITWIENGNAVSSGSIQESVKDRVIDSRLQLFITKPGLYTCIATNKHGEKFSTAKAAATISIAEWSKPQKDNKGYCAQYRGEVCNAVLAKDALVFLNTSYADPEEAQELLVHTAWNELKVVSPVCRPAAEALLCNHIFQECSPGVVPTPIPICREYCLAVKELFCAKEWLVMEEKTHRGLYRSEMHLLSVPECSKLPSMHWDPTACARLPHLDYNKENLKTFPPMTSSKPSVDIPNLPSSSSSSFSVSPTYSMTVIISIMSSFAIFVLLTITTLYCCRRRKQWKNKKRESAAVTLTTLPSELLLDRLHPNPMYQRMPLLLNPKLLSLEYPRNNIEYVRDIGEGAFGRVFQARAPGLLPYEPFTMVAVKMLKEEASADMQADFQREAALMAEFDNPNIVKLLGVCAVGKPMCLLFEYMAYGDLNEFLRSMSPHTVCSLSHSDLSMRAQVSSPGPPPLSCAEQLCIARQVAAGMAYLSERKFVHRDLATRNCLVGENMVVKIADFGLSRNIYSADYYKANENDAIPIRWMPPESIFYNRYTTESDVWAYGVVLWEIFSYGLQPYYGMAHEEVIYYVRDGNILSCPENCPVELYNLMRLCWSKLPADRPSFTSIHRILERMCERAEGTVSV

[11] = molecular target: Vascular endothelial growth factor receptor 3 (Homo sapiens, UniProt P35916); conditions: dose 1000.0 nM
[12] = molecular target: T3, Tyrosine-protein kinase Mer (Homo sapiens) (UniProt Q12866); conditions: dose 1000.0 nM
T3 sequence (whole entry): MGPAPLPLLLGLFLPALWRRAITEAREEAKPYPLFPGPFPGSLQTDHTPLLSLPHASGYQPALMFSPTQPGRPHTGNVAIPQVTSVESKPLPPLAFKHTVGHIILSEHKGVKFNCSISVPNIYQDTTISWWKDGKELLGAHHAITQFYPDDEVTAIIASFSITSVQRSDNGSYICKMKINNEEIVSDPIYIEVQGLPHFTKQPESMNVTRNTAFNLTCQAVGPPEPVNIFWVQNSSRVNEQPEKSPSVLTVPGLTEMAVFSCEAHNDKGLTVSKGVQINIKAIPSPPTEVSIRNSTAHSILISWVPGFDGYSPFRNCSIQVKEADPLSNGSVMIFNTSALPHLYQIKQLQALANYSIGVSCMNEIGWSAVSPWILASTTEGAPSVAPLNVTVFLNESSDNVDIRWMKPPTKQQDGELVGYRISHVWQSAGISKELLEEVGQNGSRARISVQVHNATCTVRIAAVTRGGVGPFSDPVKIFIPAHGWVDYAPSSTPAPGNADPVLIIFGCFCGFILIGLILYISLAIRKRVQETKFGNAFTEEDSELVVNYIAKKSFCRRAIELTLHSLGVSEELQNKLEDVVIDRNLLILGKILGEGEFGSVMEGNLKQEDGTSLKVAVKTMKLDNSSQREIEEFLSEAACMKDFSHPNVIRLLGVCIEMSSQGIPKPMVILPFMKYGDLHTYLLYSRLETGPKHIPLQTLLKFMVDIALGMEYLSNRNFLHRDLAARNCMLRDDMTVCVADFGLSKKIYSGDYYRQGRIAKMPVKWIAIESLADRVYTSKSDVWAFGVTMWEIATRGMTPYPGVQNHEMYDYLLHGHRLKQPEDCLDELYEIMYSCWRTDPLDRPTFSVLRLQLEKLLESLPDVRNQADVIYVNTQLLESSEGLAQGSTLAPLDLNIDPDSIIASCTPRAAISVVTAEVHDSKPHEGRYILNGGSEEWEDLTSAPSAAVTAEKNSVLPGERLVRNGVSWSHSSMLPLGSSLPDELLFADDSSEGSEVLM

[13] = molecular target: Receptor-type tyrosine-protein kinase FLT3 (Homo sapiens, UniProt P36888); conditions: dose 1000.0 nM
[14] = system: High affinity nerve growth factor receptor (Mus musculus), Q3UFB7 [UNDEFINED MUTATION]; conditions: BaF3, dose <= 300.0 nM, time 6.0 hrs; remark: listed apart in the source
[15] = molecular target: Cyclin-dependent kinase 14 (Homo sapiens, UniProt O94921); conditions: dose 1000.0 nM
[16] = molecular target: Vascular endothelial growth factor receptor 2 (Homo sapiens, UniProt P35968); conditions: dose 1000.0 nM
Angiopoietin-1 receptor = Angiopoietin-1 receptor (Homo sapiens, UniProt Q02763); conditions: dose 1000.0 nM

Cc1c2cc(cc1C(=O)Nc1cc(CN3CCN(C)CC3)cc(C3CC3)c1)OCCCCCCCNC(=O)c1ccc3ncc(n3n1)C#C2
inhibition [1]: 4% | inhibition [2]: 8% | inhibition [3]: 3% | inhibition (Ephrin type-A receptor 5): 0% | inhibition [4]: Dose-Dependent Effect | inhibition (Ephrin type-A receptor 2): -4% | inhibition [5]: Dose-Dependent Effect | inhibition [6]: Dose-Dependent Effect | inhibition (Ephrin type-A receptor 7): 3% | inhibition [7]: Dose-Dependent Effect | inhibition [8]: 4% | inhibition [9]: 9% | inhibition [10]: 1% | inhibition [11]: 6% | inhibition [12]: 2% | inhibition [13]: 8% | inhibition [14]: Dose-Dependent Effect | inhibition [15]: 7% | inhibition [16]: 1% | inhibition (Angiopoietin-1 receptor): 0%
